Reference: ChEMBL document CHEMBL1157167, “Structural insights into how irreversible inhibitors can overcome drug resistance in EGFR” (Bioorg Med Chem, 2008)

Biological target: Proto-oncogene tyrosine-protein kinase Src (Gallus gallus, UniProt P00523, S345C/T338M)
Experiment: Inhibition of drug-resistant chicken cSrc double mutant expressed in Escherichia coli

Compound `CN(C)C/C=C/C(=O)Nc1ccc2ncnc(Nc3cccc(Br)c3)c2c1` has an IC50 of 5.71 µM.
